From patent EP4703474A1, “ANTI-LRRC15 ANTIBODY” (priority 2023, dated 2024)

Legend:
[1] = biological target: T1, rat LRRC15 extracellular domain expressed on HEK293α (pDisplay-ratLRRC15 ECD) (rat, UniProt Q8R5M3 22-535); assay: flow cytometry, transfected HEK293α, 10 µg/mL
T1 construct: vector-derived parts not described; also called rLRRC15 ECD

[2] = biological target: T2, mouse LRRC15 extracellular domain expressed on HEK293α (pDisplay-mLRRC15 ECD) (mouse, UniProt Q80X72 22-536); assay: flow cytometry, transfected HEK293α, 10 µg/mL
T2 construct: vector-derived parts not described

[3] = biological target: T3, mouse LRRC15 (endogenous, on Balb/3T3 cells) (mouse, UniProt Q80X72 22-579); assay: flow cytometry, endogenous LRRC15 on mouse fibroblast line Balb/3T3
T3 construct: Endogenous protein of the mouse fibroblast line Balb/3T3; also called mLRRC15

Measured: binding result

B1: H02L01 antibody (antibody, human IgG1, kappa, L234A L235A, V domains shown)
VH: EVQLVESGGGLVQPGGSLRLSCAASGFTFRDYYMAWVRQAPGKGLEWVSSIGFDESRTYYADSVKGRFTISRDDSKNTLYLQMNSLRAEDTAVYYCARHGVSYYSGDNWFAYWGQGTLVTVSS
VL: DIQMTQSPSSLSASVGDRVTITCKSSQGLLYSGDQKNYLAWYQQKPGKAPKLLIYWASTRQSGVPSRFSGSGSGTDFTLTISSLQPEDFATYYCQQYYDPPYTFGQGTKVEIKR
notes: Humanized anti-LRRC15 antibody, human IgG1 / kappa; also called hR024 (hR024 H02 + hR024 L01)
binds: all assays above

B2: H02L01-V1 antibody (antibody, human IgG1, kappa, L234A L235A, V domains shown)
VH: B1 VH with Y103K
VL: B1 VL
notes: Humanized anti-LRRC15 antibody, human IgG1 / kappa; also called hR024 (hR024 H02-V1 + hR024 L01)
binds: all assays above

B3: H02L01-V2 antibody (antibody, human IgG1, kappa, L234A L235A, V domains shown)
VH: B1 VH with Y103R
VL: B1 VL
notes: Humanized anti-LRRC15 antibody, human IgG1 / kappa; also called hR024 (hR024 H02-V2 + hR024 L01)
binds: all assays above

B4: H09L03 antibody (antibody, human IgG1, kappa, L234A L235A, V domains shown)
VH: B1 VH with S49A, N77S, A97T
VL: B1 VL with A49S, S66D
notes: Humanized anti-LRRC15 antibody, human IgG1 / kappa; also called hR024 (hR024 H09 + hR024 L03)
binds: all assays above

Residue numbers refer to the chain shown, from its start.
